Patent US11702404B2, “GLP-1R modulating compounds” (priority 2019, dated 2023)

Assay: Microsomal stability, human liver microsomes (predicted hepatic clearance)
Settings: predicted from in vitro microsomal stability data

Predicted Hepatic Clearance (Pred. Cl.): 5.5 mL/min/kg
Compound: N#Cc1ccc(COc2cccc(-c3ccc(Cc4nc5ccc(C(=O)O)cc5n4C[C@@H]4CCO4)cc3)n2)c(F)c1 [Example 634]
